Key:
[1] = Population PK model of evobrutinib; type: in vivo, human
[2] = tested on: patients with RMS; type: in vivo, human

D1 (duration of zero order input) ([1]; final PK model, week 48, fasted): 0.241 h
Increase of duration of the zero-order input with food compared with when fasted ([1]; population PK model covariate effect): 441%
Structure (SMILES): C=CC(=O)N1CCC(CNc2ncnc(N)c2-c2ccc(Oc3ccccc3)cc2)CC1 [evobrutinib, Evobrutinib]
AUC0-24,SS associated with T1 Gd+/T2 lesion reduction ([2]; total T1 Gd+ and new/enlarging T2 lesions at weeks 12-24): 468 ng·h/mL
Exposure (AUC) at which maximal response in T1 Gd+ and new/enlarging T2 lesion count was achieved ([2]; weeks 12-24): > 400 ng·h/mL
